Counter-ions that a name gives are not always drawn.
target: T1, Nitric oxide synthase (neuronal, human recombinant) nNOS (Homo sapiens, UniProt P29475); experiment: nNOS (human) enzyme assay, [3H]-L-arginine to L-citrulline conversion; format: biochemical; settings: Table 3
T1 construct: purchased Axxora LLC ALX-201-068

In order of falling IC50:
1. CNC1CCCC(c2c[nH]c3ccc(NC(=N)c4cccs4)cc23)C1 (single isomer, unassigned) [Compound 7b, N-(3-(3-(Methylamino)cyclohexyl)-1H-indol-5-yl)thiophene-2-carboximidamide dihydrochloride [(−)-cis-enantiomer]]  1.37 µM
2. CNC1CCCC(c2c[nH]c3ccc(NC(=N)c4cccs4)cc23)C1 (single isomer, unassigned) [Compound 7a, N-(3-(3-(Methylamino)cyclohexyl)-1H-indol-5-yl)thiophene-2-carboximidamide dihydrochloride [(+)-cis-enantiomer]]  0.57 µM
3. CNC1CCCC(c2c[nH]c3ccc(NC(=N)c4cccs4)cc23)C1 (single isomer, unassigned) [(±)-7, N-(3-(-3-(Methylamino)cyclohexyl)-1H-indol-5-yl)thiophene-2-carboximidamide]  0.49 µM
4. CNC1CCCC(c2c[nH]c3ccc(NC(=N)c4cccs4)cc23)C1 (racemic) [(±)-8, N-(3-(3-(methylamino)cyclohexyl)-1H-indol-5-yl)thiophene-2-carboximidamide]  0.309 µM

target: T2, Nitric oxide synthase (endothelial, human recombinant) eNOS (Homo sapiens, UniProt P29474); experiment: eNOS (human) enzyme assay, [3H]-L-arginine to L-citrulline conversion; format: biochemical; settings: Table 2; compounds tested as hydrochloride salts
T2 construct: purchased Axxora LLC ALX-201-070

In order of falling IC50:
1. CCN[C@H]1CC[C@H](c2c[nH]c3ccc(NC(=N)c4cccs4)cc32)CC1 (single isomer, unassigned) [Compound 5a, trans-N-(3-(4-(Ethylamino)cyclohexyl)-1H-indol-5-yl)thiophene-2-carboximidamide]  216 µM
2. CCNC1CCC(c2c[nH]c3ccc(NC(=N)c4cccs4)cc23)CC1 (mixture of isomers) [Compound 5, N-(3-(4-(ethylamino)cyclohexyl)-1H-indol-5-yl)thiophene-2-carboximidamide]  40.8 µM
3. CNC1CCC(c2c[nH]c3ccc(NC(=N)c4cccs4)cc23)CC1 (mixture of isomers) [Compound 1, N-(3-(4-(methylamino)cyclohexyl)-1H-indol-5-yl)thiophene-2-carboximidamide]  26.9 µM
4. CCN[C@H]1CC[C@@H](c2c[nH]c3ccc(NC(=N)c4cccs4)cc32)CC1 (single isomer, unassigned) [Compound 5b, cis-N-(3-(4-(Ethylamino)cyclohexyl)-1H-indol-5-yl) thiophene-2-carboximidamide]  17.8 µM
5. CN[C@H]1CC[C@H](c2c[nH]c3ccc(NC(=N)c4cccs4)cc32)CC1 [Compound 1b, N-(3-(4-(Methylamino)cyclohexyl)-1H-indol-5-yl)thiophene-2-carboximidamide]  6.24 µM

— US20090131503A1, “3,5 - SUBSTITUTED INDOLE COMPOUNDS HAVING NOS AND NOREPINEPHRINE REUPTAKE INHIBITORY ACTIVITY” (priority 2007, published 2009)
